“Also recorded” adds a separate entry of the source.
Test system: PSMA+ LNCaP xenograft in SCID mouse
Format: in vivo
Conditions: 4 h p.i., LNCaP tumor
Experimental: At 4 h p.i., the mouse was anesthetized with isoflurane and maintained under 1% isoflurane in oxygen. The mouse was positioned on the X-SPECT (Gamma Medica, Northridge, Calif.) gantry and was scanned using two low energy, high-resolution pinhole collimators (Gamma Medica) rotating through 360° in 6° increments for 45 seconds per increment. All gamma images were reconstructed using Lunagem software (Gamma Medica, Northridge, Calif.) Immediately following SPECT acquisition, the mice were then scanned by CT (X-SPECT) over a 4.6 cm field-of-view using a 600 μA, 50 kV beam. […] Data were reconstructed using the Ordered Subsets-Expectation Maximization (OS-EM) algorithm.

O=C(O)CCC(NC(=O)NC(CCCCNC(=O)c1cncc([125I])c1)C(=O)O)C(=O)O (stereo not shown) [[^125I]8, 2-(3-{1-carboxy-5-[(5-[^125I]iodo-pyridine-3-carbonyl)-amino]-pentyl}-ureido)-pentanedioic acid]
radiopharmaceutical uptake in SPECT-CT image: Tumor uptake and retention was high, with slow washout; also recorded: intense uptake within tumor

From patent US12070513B2, “PSMA-binding agents and uses thereof” (The Johns Hopkins University, priority 2008, dated 2024)
